Results from paper PMC5417014 (Chemical Science, 2017).

By UniProt entry, the sequences of proteins in these tests, tags left out. Residues count along the entry.
UniProt Q06187, 2-659: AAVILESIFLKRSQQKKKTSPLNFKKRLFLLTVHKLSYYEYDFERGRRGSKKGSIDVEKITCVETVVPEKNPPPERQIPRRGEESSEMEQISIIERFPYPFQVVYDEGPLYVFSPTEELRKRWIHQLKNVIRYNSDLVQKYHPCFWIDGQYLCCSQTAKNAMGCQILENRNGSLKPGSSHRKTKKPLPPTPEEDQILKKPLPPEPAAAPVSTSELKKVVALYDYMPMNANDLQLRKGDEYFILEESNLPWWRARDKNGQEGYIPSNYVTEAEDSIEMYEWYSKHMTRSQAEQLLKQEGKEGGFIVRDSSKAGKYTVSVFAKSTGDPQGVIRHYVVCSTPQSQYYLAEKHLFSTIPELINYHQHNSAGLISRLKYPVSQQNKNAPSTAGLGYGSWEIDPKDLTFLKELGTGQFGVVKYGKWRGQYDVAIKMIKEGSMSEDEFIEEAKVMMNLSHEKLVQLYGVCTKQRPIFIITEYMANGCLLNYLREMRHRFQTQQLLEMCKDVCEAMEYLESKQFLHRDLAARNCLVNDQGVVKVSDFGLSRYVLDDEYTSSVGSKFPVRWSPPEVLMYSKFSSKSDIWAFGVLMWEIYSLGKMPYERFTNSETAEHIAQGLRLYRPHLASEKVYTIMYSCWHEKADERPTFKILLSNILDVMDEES

Biological target: Bruton's tyrosine kinase (Btk) (Homo sapiens, UniProt Q06187)
Assay: target occupancy in Ramos cells, covalent fluorescent probe competition
Assay type: cell-based

EC50: 22.3 nM
SMILES: C=CC(=O)Nc1cccc(Nc2nc(Nc3ccc(OCCOC)cc3)ncc2F)c1 [CC-292]
